Test system: ADP-ribose
Assay: purified protein, by the assay type
Conditions: pH 7.0
[1] = other: substrate of NPPase from rice leaves, 37.0 °C

“NPPase from barley leaves (Hordeum vulgare)” was tested, and the Km (other: substrate of NPPase from barley leaves) was 2400 µM.
“NPPase from rice leaves (Oryza sativa Japonica Group)” showed a Km [1] of 1430 µM, a Vmax [1] of 317 µmol/min/mg and a kcat/Km [1] of 248000 M⁻¹ s⁻¹.

From patent publication US20060242739A1, “Plant nucleotide-sugar pyrophosphatase/phosphodiesterase (nppase), method of obtaining same and use of same in the production of assay devices and in the production of transgenic plants” (Universidad Publica De Navarra, priority 2002, published 2006)
